Biological target: human recombinant GSK-3β (Homo sapiens, UniProt P49841)
Experiment: GSK-3β activity, AlphaScreen, primed glycogen synthase substrate peptide
Assay type: biochemical
Details: human recombinant GSK-3β 0.18 nM, biot. phospho-glycogen synthase peptide 34 nM, 10 μM ATP, 60 min room temperature, triplicate
Method: Functional measurements to ascertain IC50 values:
GSK-3β activity is measured using human recombinant GSK-3β and a primed (pre-phosphorylated) substrate peptide (derived from glycogen synthase and containing the phosphorylation sites 3a, b, and c) on the basis of the AlphaScreen technology in 384-well plate format (small volume plate, white, Greiner). […] After adding […] Donor beads (20 μg/ml) and […] antibody (anti-phosphoglycogen synthase 1:2000)-coated Acceptor beads (40 μg/ml) in AlphaScreen detection buffer (20 mM Hepes, pH 7.4, 10 mM MgCl, 40 mM EDTA, 1 mM DTT, 0.1 mg/ml BSA), plates are incubated at room temperature (in the dark) overnight and then placed in a reader (Alphaquest or Fusion) to measure final fluorescence. IC50 values are calculated from the fitted curve corrected for bank values (absence of GSK-3β) and performed in triplicate.

Sequences of proteins named here, by UniProt entry; tags and fusion partners are left off. A change or cut given only in a name is not applied to a line headed by its entry.
UniProt P49841: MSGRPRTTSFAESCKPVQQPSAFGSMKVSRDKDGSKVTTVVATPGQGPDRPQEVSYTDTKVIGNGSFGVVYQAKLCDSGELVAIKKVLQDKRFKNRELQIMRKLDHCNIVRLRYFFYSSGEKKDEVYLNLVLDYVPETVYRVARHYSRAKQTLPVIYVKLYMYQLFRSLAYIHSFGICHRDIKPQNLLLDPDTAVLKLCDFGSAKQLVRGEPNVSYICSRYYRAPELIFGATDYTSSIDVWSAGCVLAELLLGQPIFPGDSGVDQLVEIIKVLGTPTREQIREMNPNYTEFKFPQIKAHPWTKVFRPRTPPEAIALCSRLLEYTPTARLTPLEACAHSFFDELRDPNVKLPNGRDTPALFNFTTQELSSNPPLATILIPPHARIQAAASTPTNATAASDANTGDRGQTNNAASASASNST

`Cc1cc(-c2cc(-c3nc4ccc(CN5CCN(C)CC5)cc4[nH]3)c(=O)[nH]n2)cc(C)c1O` [Example 43, 6-(4-Hydroxy-3,5-dimethylphenyl)-4-[6-(4-methylpiperazin-1-ylmethyl)-1H-benzimidazol-2-yl]-2H-pyridazin-3-one] was tested, and the IC50 was 1.5 nM.

From patent US7727989B2, “4-benzimidazol-2-yl-pyridazine-3-one-derivatives, production and use thereof in medicaments” (Sanofi-Aventis Deutschland GmbH, priority 2004, dated 2010)
